In the library only some 0.92% were active in any assay of this set; here they are far more common.
GALK inh = galactokinase (human) inhibition | P51570 | Purified GALK, Kinase-Glo residual ATP luminescence | Potency, µM (top dose mostly 57.5 µM), inactives show at the highest dose activity change, negative = inhibition, most hits filed as inhibitors | actives 0.007% (n = 270,000); also: potency is read from the fitted curve at half-maximal effect; % is scaled to controls: 0 for no effect and ±100 for the full control effect
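GALK at 5 nM final was combined with compound, 35 uM ATP and 100 uM galactose in HEPES pH8.0 with MgCl2 and DTT. The reaction ran one hour at room temperature before luminescent ATP detection.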
B2AR arrestin = agonists driving beta-arrestin recruitment to human beta2-adrenergic receptor | beta-arrestin recruitment to beta2AR, cell-based reporter | Potency, µM (series often up to 46.1 µM), inactives show at the highest dose activation, hits mostly activators | actives 0.02% (n = 330,000) | AID 492947;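 also: potency is read from the fitted curve at half-maximal effect; 0% = DMSO controls and full agonism = EC100 isoproterenol or metaproterenol; nearly all actives have a fitted effect of over 65% in size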
Coupling enz = counter-screen for Giardia aldolase inhibitors: coupling enzyme system | coupling enzyme system counterscreen, AmpLite Red fluorescence | actives 0.67% (n = 290,000) | activity change, negative = inhibition, % at 58.2 µM, hits read low | AID 2472; in the data active = activity change below about -30%; also: % is scaled to controls: 0 for no effect and ±100 for the full control effect
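First, compound is pin-transferred into glyceraldehyde-3-phosphate coupling-enzyme reagent at 57.5 uM final and held 10 min at RT. Next, substrate, coupling system and AmpLite Red are added. After 20 min RT, fluorescence (525/598 nm) is read.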
miR-21 reporter = miR-21 reporter, rising signal; HeLa miR-21 FLuc reporter, luciferase, 48 h; Potency, µM (highest dose often 38.3 µM), for the others: top-dose reporter change, positive = more light; 340,000 tested, under 10 active; AID 2288; active = well fitted rising curve with a large enough effect; inconclusive = small, poorly fitted or top-dose-only effect; inactive = no such curve, though single readings can be large or run the other way;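 further: % of control where 0% means no effect; miR-21 action dims this reporter so a rising signal means less miR-21 action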
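Luminescence from a firefly luciferase reporter carrying a miR-21 binding site downstream, stably expressed under a CMV promoter in HeLa cells that make miR-21 endogenously, reports miRNA modulation after 48 h compound exposure up to approximately 40uM final.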
Giardia killer = kills Giardia lamblia; Giardia lamblia trophozoite viability; activity change, % at 7.66 µM, hits read low; actives 0.15% (n = 340,000); in the data active = activity change below about -80%; inconclusive = between about -30% and that limit;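 also: parasites exposed to compound for two days anaerobically before the ATP read; % is scaled to controls: 0 for no effect and ±100 for the full control effect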
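Luminescence from cellular ATP indicates surviving trophozoites (100 cells/well) following 48 hrs anaerobic compound treatment at 37 deg C; signal develops 15-30 min at room temperature.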
uPA generation = inhibitors of cell surface uPA generation; cell surface uPA generation assay, qHTS; Potency, µM (top dose mostly 38.3 µM), inactives show at the top dose activity change, negative = inhibition, hits mostly inhibitors; actives 0.31% (n = 330,000); active = well fitted inhibition curve with a large enough effect; inconclusive = small, poorly fitted or top-dose-only effect; inactive = no such curve, though single readings can be large or run the other way; tested in mouse RAW 264.7 cells; also: potency is read from the fitted curve at half-maximal effect; % is scaled to controls: 0 for no effect and ±100 for the full control effect; nearly all actives have a fitted effect of over 55% in size
Starred values were filed as active, the others as inactive. Unless noted, calls follow the shape of the dose curve; as a rule, active = well fitted curve in the direction sought with a large enough effect; inconclusive = small, poorly fitted or top-dose-only effect, or another doubt; inactive = no such curve, though single readings can be large; an effect the other way counts as inactive or inconclusive.

Results for Fc1ccc(C[n+]2c(-c3ccccc3)cc(-c3ccccc3)cc2-c2ccccc2)cc1 ?
B2AR arrestin: 0.0%; Giardia killer: -2.3; uPA generation: 8.91µM*

What do the screens show for `CCOC(=O)C1CCCN(c2ccc([N+](=O)[O-])c3nonc23)C1` (stereo not given)?
GALK inh: 2.4%; B2AR arrestin: -0.3%; Coupling enz: -4.4; miR-21 reporter: 2.7%; Giardia killer: -94.8*; uPA generation: -6.5%

What do the screens show for `CC1CCCN(c2ccc(C(=O)N3CCC4(CC3)OCCO4)cc2[N+](=O)[O-])C1` (stereo not given)?
GALK inh: 14.9%; B2AR arrestin: 0.4%; Coupling enz: -1.1; miR-21 reporter: 0.9%; Giardia killer: -5.6; uPA generation: -2.2%

What do the screens show for `C[C@@H](NC(=O)c1nc[nH]c1C(=O)NCc1ccc(CNC(=O)OC(C)(C)C)cc1)c1ccccc1`?
B2AR arrestin: 0.6%; Giardia killer: -19.5; uPA generation: -9.9%

How did CCOCCCn1c(N)c(C(=O)Nc2sc3c(c2C(=O)OC)CCCC3)c2nc3ccccc3nc21 do in these assays?
GALK inh: -2.0%; B2AR arrestin: -0.2%; Coupling enz: -44.7*; miR-21 reporter: -4.2%; Giardia killer: 12.1; uPA generation: 10.2%

What do the screens show for `CC(C)OC(=O)c1c(N)n(CC2CCCO2)c2nc3ccccc3nc12` (stereo not given)?
GALK inh: 0.6%; B2AR arrestin: 0.2%; Coupling enz: -10.4; miR-21 reporter: 5.8%; Giardia killer: 0.6; uPA generation: 9.5%

Results for COCCCn1c(N)c(C(=O)NCCC(C)C)c2nc3ccccc3nc21 ?
GALK inh: -0.1%; B2AR arrestin: -0.4%; Coupling enz: -45.9*; miR-21 reporter: 8.1%; Giardia killer: -1.1; uPA generation: 2.3%

Results for CCOC(=O)c1c(NC(=O)c2c(N)n(CCCOC)c3nc4ccccc4nc23)sc2c1CCCC2 ?
GALK inh: -0.7%; B2AR arrestin: -1.9%; miR-21 reporter: -2.9%; Giardia killer: -0.3; uPA generation: 6.6%

How did CC(C)OCCCNC(=O)c1c(N)n(CC2CCCO2)c2nc3ccccc3nc12 (stereo not given) do in these assays?
GALK inh: -0.2%; B2AR arrestin: 0.0%; Coupling enz: -46.7*; miR-21 reporter: 8.2%; Giardia killer: 7.9; uPA generation: 14.2%

Results for CCCNC(=O)c1c(N)n(CC2CCCO2)c2nc3ccccc3nc12 (stereo not given) ?
GALK inh: 0.7%; B2AR arrestin: -0.6%; Coupling enz: -51.0*; miR-21 reporter: 4.9%; Giardia killer: 13.7; uPA generation: -0.4%

Already shown: an excerpt of the list.
How did CC(C)OCCCNC(=O)c1c(N)n(CC2CCCO2)c2nc3ccccc3nc12 (stereo not given) do in these assays?
GALK inh: -0.2%; B2AR arrestin: 0.0%; Coupling enz: -46.7*; miR-21 reporter: 8.2%; Giardia killer: 7.9; uPA generation: 14.2%

Results for CCCNC(=O)c1c(N)n(CC2CCCO2)c2nc3ccccc3nc12 (stereo not given) ?
GALK inh: 0.7%; B2AR arrestin: -0.6%; Coupling enz: -51.0*; miR-21 reporter: 4.9%; Giardia killer: 13.7; uPA generation: -0.4%

Additional entries follow:
How did Cc1ccc(C(=O)COC(=O)c2cccc(NC(=O)c3ccc(Br)cc3)c2)cc1 do in these assays?
miR-21 reporter: -19.7%

What do the screens show for `CC1=C(O)C(=O)C=C2C1=CC=C1[C@]2(C)CC[C@@]2(C)C3C[C@](C)(C(=O)O)CC[C@@]3(C)CC[C@@]12C` (stereo not given in full)?
Coupling enz: 2.2

Results for Nc1cccc(-c2nc3ccc(C(=O)c4ccccc4)cc3[nH]2)c1 ?
GALK inh: 1.6%; B2AR arrestin: 3.8%; Coupling enz: -7.3; miR-21 reporter: -2.2%; Giardia killer: -29.4; uPA generation: 2µM*

Results for CN(C)C1CSSSC1 ?
Coupling enz: -0.3

What do the screens show for `COc1ccc(C(=O)N/N=C/c2ccc(N(C)c3ccccc3)cc2)cc1`?
Giardia killer: -25.5; uPA generation: inconclusive

How did COc1ccc(/C=N/Nc2cc(N3CCCC3)nc(N3CCCC3)n2)cc1 do in these assays?
GALK inh: -2.1%; B2AR arrestin: -0.9%; Coupling enz: -40.4*; miR-21 reporter: 1.3%; Giardia killer: -10.0; uPA generation: 50.6%

Results for CC1=C2C(=O)C3C(CC=C4C[C@@H](O)CC[C@@]43C)[C@@H]2CC[C@]12O[C@@H]1C[C@H](C)CN[C@H]1C2C (stereo not given in full) ?
Coupling enz: 0.2

Screening data deposited in PubChem by National Center for Advancing Translational Sciences (NCATS).
